Results from PubChem BioAssay AID1236 (Emory University Molecular Libraries Screening Center, 2008).
The entries are a selection whose mix differs from that of the whole data set. Active and inactive are the calls of the source.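 The calls were made as follows: active = inhibition above about 50% (limit read from the data); inactive = the rest.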

tested on: calpain II (m-calpain), Sus scrofa; assay: m-calpain protease activity blockers – biochemical, fluorogenic peptide substrate, 1536-well, primary screen (AID 1236); conditions: purified calpain II, 30 min, at 16 µM, stronger effect = higher value

Compound	inhibition
Cc1cc(C)cc(OP(C)(=O)Nc2ccc(SC(F)(F)F)cc2)c1 (stereo not given)	inactive: 41.4%
CP(=S)(Nn1cnnc1)Oc1ccccc1 (stereo not given)	inactive: 13.8%
CP(=O)(Nc1ccccc1Br)Oc1ccccc1 (stereo not given)	inactive: 11.4%
COc1ccccc1OP(C)(=O)Nc1ccccc1 (stereo not given)	inactive: -33%
CN1CCCCC1COC(=O)C1(O)c2ccccc2CCc2ccccc21 (stereo not given)	inactive: 1%
COc1ccccc1OP(C)(=O)Nc1c(C)cccc1C (stereo not given)	inactive: -11.8%
CP(=O)(Nc1ccc(SC(F)(F)F)cc1)Oc1ccccc1 (stereo not given)	inactive: -2.43%
CCCOc1ccc(NP(C)(=O)Oc2ccc(Cl)cc2)cc1 (stereo not given)	inactive: 15.5%
O=[N+]([O-])c1cc([N+](=O)[O-])c(Nc2nnnn2CCO)c([N+](=O)[O-])c1	inactive: 8.78%
CCOC(=O)C(CC)C1=NC(C)(C)Cc2ccccc21.O=[N+]([O-])c1cc([N+](=O)[O-])c(O)c([N+](=O)[O-])c1 (stereo not given)	inactive: 2.87%
Cc1nc2ccc3ccccc3c2s1.O=[N+]([O-])c1cc([N+](=O)[O-])c(O)c([N+](=O)[O-])c1	inactive: 14.3%
O=[N+]([O-])c1cc([N+](=O)[O-])c(-n2nnc3ccccc32)c([N+](=O)[O-])c1	inactive: -5.37%
Cc1ccc(C)c(NP(C)(=O)Oc2ccccc2)c1 (stereo not given)	inactive: 9.09%
CP(=O)(Nc1cccc(Br)c1)Oc1ccccc1 (stereo not given)	active: 78.4%
Cc1cc(C)cc(OP(C)(=O)Nc2ccccn2)c1 (stereo not given)	inactive: -20%
COc1ccccc1OP(C)(=O)Nc1cccc(Br)c1 (stereo not given)	inactive: 19.6%
CCOC(=O)c1ccc(NP(C)(=O)Oc2cc(C)cc(C)c2)cc1 (stereo not given)	inactive: 13.6%
Cc1cc(C)cc(OP(C)(=O)Nc2ccc(C)cc2C)c1 (stereo not given)	inactive: -0.37%
CC1=NCCc2c1[nH]c1ccccc21.O=[N+]([O-])c1cc([N+](=O)[O-])c(O)c([N+](=O)[O-])c1	inactive: -120%
O=C(O)c1cccc(Nc2c([N+](=O)[O-])cc([N+](=O)[O-])cc2[N+](=O)[O-])c1	inactive: 20.3%
